Assay results published in patent US5945509A, “Glutamate receptor compositions and method” (The Salk Institute for Biological Studies, priority 1995, dated 1999).

Amino acid sequences for entries named in this document (tags omitted). Residues count along the entry.
UniProt P19490, 19-907: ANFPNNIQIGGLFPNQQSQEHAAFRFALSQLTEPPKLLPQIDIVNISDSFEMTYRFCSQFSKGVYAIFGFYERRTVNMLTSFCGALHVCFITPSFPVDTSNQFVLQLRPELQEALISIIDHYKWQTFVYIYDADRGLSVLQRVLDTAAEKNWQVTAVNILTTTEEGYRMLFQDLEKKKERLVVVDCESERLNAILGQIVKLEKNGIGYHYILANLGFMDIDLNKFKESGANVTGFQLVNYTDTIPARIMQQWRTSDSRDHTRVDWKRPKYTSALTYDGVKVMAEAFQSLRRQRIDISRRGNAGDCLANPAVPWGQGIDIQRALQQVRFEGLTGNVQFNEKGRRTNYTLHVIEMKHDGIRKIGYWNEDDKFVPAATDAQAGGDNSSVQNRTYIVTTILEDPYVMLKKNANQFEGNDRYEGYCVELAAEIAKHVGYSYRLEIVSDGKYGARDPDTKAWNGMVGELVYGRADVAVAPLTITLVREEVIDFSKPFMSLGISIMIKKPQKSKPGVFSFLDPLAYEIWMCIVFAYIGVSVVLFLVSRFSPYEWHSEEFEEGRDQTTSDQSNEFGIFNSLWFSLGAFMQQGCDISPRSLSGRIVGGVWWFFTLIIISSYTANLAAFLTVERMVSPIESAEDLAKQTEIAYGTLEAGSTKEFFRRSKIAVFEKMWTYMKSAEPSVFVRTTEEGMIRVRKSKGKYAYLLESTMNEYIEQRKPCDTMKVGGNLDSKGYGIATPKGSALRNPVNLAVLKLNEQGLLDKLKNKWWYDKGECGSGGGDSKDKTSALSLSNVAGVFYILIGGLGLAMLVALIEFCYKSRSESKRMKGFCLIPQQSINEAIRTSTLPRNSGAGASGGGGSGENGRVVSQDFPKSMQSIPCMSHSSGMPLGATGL

Tests used:
[1] = system: GluR3; format: cell-based, rat; conditions: for response of oocytes to agonist (in words): QUIS 10 μM, AMPA 50 μM, GLU 100 μM, NMDA 30 μM plus 10 μM glycine, APB 50 μM, -70 mV, 3 days after 2 ng RNA
[2] = system: GluR2; conditions: 100 μM KA
[3] = system: oocytes injected with pool of in vitro transcripts from rat forebrain cDNA library; assay: Voltage recordings from oocytes injected with pooled in vitro transcripts of the λZAPII RTB1 cDNA library; format: cell-based; conditions: 10 days after injection
Procedure: A directional cDNA library (λZAPII RTB1; complexity: 8×10^5 elements), consisting of 18 independent sublibraries of 44,000 clones each, was constructed from this poly(A)^+ RNA using the bacteriophage expression vector λZAPII. A pool of in vitro transcripts, comprised of transcripts made separately from all 18 amplified sublibraries, was injected into oocytes. […]. No responses to NMDA or quisqualate were detected. […]. Subsequently, pools of 44,000 clones (=the single sublibraries), 4,000, 400 and 40 clones were tested. In each of these tests at least one pool responded to KA.

[4] = target: GluR1 (Rattus norvegicus, UniProt P19490); assay: Electrophysiological recording in Xenopus oocytes injected with GluR1 in vitro RNA; conditions: -70 mV
[5] = system: GluR5-1; format: cell-based, rat; conditions: KA, AMPA 50 μM, quisqualate 10 μM, APB 100 μM, NMDA 100 μM with 10 μM glycine

| Compound | response of oocytes to agonist (in words) [1] | depolarization on bath application [2] | depolarizations ([3]; 100 μM kainate) | Compound Alone (%) ([4]; % of the response evoked by 30 μM kainate immediately before drug application, compounds at 1 mM (kainate 30 μM), peak currents, 3 oocytes, ± SEM) | depolarization on bath application ([1]; 100 μM KA) | response to agonist (in words) [3] | response of oocytes to agonist (in words) ([4]; QUIS 10 μM, AMPA 50 μM, GLU 100 μM, NMDA 30 μM plus 10 μM glycine, APB 50 μM, 3 days after 2 ng RNA) | membrane depolarization elicited by agonist (in words) [5] |
| --- | --- | --- | --- | --- | --- | --- | --- | --- |
| Cc1onc(O)c1CC(N)C(=O)O (stereo not drawn) [AMPA, α-amino-3-hydroxy-5-methyl-isoxazole-4-propionic acid] | respond |  |  |  |  |  |  |  |
| C=C(C)[C@H]1CN[C@H](C(=O)O)[C@H]1CC(=O)O [kainate, kainic acid] |  | depolarize | 1-3 mV | 100.0 | depolarize |  |  |  |
| N[C@@H](Cn1oc(=O)[nH]c1=O)C(=O)O [quisqualate, quisqualic acid] | respond |  |  |  |  | No responses | respond | did not elicit membrane depolarizations |
